Our source for the inhibition values is patent US5232917A, “Methods, compositions, and compounds for allosteric modulation of the GABA receptor by members of the androstane and pregnane series” (priority 1991, dated 1993).

Amino acid sequences for entries named in this document (tags omitted).
UniProt P49884, whole entry: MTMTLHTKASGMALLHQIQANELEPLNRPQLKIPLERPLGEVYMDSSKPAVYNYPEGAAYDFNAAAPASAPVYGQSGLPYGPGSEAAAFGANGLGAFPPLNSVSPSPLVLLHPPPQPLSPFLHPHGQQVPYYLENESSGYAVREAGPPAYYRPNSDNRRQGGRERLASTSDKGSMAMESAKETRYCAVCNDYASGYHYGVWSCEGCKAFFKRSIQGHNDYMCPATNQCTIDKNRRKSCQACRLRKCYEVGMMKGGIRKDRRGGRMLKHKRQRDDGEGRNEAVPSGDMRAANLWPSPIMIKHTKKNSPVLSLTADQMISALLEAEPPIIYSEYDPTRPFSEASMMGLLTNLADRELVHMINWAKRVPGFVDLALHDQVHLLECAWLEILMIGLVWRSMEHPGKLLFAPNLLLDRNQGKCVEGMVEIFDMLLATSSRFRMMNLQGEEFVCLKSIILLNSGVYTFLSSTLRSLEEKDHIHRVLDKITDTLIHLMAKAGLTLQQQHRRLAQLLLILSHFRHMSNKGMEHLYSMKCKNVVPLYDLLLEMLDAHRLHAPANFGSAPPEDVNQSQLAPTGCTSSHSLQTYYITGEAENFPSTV

By inhibition is commonly meant the percentage by which the read-out fell short of the control.

Read-outs that look alike come from different tables or passages of the source.

In the test the target is T1, estrogen receptor (Bos taurus, UniProt P49884).
T1 construct: from tissue; host or cells: bovine uterus cytosol
Description: Inhibition of 3H-estradiol binding to bovine uteral estrogen receptors. Particulars: 0.25 nM 3H-estradiol.

Consider `CC(=O)[C@H]1CC[C@H]2[C@@H]3CC[C@H]4C[C@](C)(O)CC[C@]4(C)[C@H]3CC[C@]12C` [3α-HYDROXY-3β-METHYL-5α-PREGNAN-20-ONE, 3α-hydroxy-3β-methyl-5α-pregnan-20-one], for which the inhibition at 1 µM was determined as 6% (read-out: % of inhibition of 3H-estradiol binding, B, competitor 10^-5 M) and 0% (read-out: % of inhibition of 3H-estradiol binding, B, competitor 10^-6 M).
